# Marks after values point to notes of the source that are not given here.
# Columns and labels:
# C5 protein = test: Secreted complement protein ELISA, primary human hepatocytes; format: cell-based; conditions: 30 uM, primary human hepatocytes treated simultaneously with IL-6
# Procedure: (§1) In this example, protein secretion from cells grown in culture in the presence of compound of interest was analyzed by enzyme linked immunosorbent assay (ELISA). In some cases, cultured cells were treated with cytokines and the compound of interest to mimic an inflammatory state. The method can be used to determine the effect of compounds, including those in the present invention, on the secretion of specific proteins from cells grown in culture under basal and cytokine stimulated (i.e. inflammatory) conditions (Table 7, FIGS. 5 and 6).
# (§2) Huh-7 cells (JCRB Cell Bank) were introduced to 24-well plates in 500 μL DMEM supplemented with 10% (v/v) FBS, 100 U/mL penicillin, 100 ug/mL streptomycin and 5 ug/mL plasmocin (all reagents from Gibco, except for the former, which comes from Invivogen) at 200 000 cells/well. After 24 h, cells were treated with the compound of interest and/or cytokines in DMEM with 10% FBS containing 0.1% DMSO for a total treatment time of 72 h. Fresh media containing compounds and/or cytokines was introduced in the final 24 h of the experiment. At harvest, media were collected, debris was removed by brief centrifugation, and ELISA assays for the indicated proteins were performed as per the manufacturer's protocol. To correct for differences in cell numbers, values obtained for complement proteins were normalized to values for transferrin. HepG2 cells (ATCC) were cultured in MEM containing 10% FBS, 1× non-essential amino acids, 1 mM sodium pyruvate, 2 mM L-glutamine, 100 U/mL penicillin, 100 ug/mL streptomycin and 5 ug/mL plasmocin. Serum amount was reduced to 0.5% when compounds were present. Treatment combinations and timing were as described above for Huh-7 cells. Primary human hepatocytes (CellzDirect/Life Technologies) were plated in collagen coated 96-well plates at 70 000 cells/well, then overlaid with Matrigel™ as recommended by the supplier. Cells were treated with compounds of interest with or without the indicated cytokines for a total of 72 h in the recommended media supplemented with 10% FBS and 0.1% DMSO (v/v). Media were collected for measurements of secreted proteins.
# (§3) The ELISA kits for detection of complement C3, C4, C5 and C9 were obtained from AssayPro (St. Charles, Mo.), while the ELISA reagents for transferrin detection were from Bethyl Laboratories (Montgomery, Tex.). Data were collected on a Thermo Scientific Multiskan GO apparatus. Downregulation of expression of components of the complement cascade will result in reduced activity of the pathway and thus will constitute a positive result. Table 7: FIGS. 5 and 6 list the amount of C3, C4, C5 and C9 protein that are detected in the media of cells treated with RVX000222 (compared to DMSO).
# C3 protein = test: as above; format: cell-based; conditions: 30 uM, primary human hepatocytes treated simultaneously with IL-6
# Procedure: as §1, §2, §3
# C4 protein = test: as above; format: cell-based; conditions: 30 uM, primary human hepatocytes treated simultaneously with IL-6
# Procedure: as §1, §2, §3
# C9 protein = test: as above; format: cell-based; conditions: 30 uM, primary human hepatocytes treated simultaneously with IL-6
# Procedure: as §1, §2, §3
# [1] = system: complement component 4 (C4) mRNA; test: mRNA expression in humanized livers of chimeric mice; format: in vivo, chimeric mice with humanized livers; conditions: 150 mg/kg b.i.d. oral gavage, 3 days, liver; p < 0.05
# Procedure: (§4) In this example, chimeric mice with humanized livers were generated by transplanting human hepatocytes into urokinase-type plasminogen activator^+/+/severe combined immunodeficient transgenic mice. Replacement with human hepatocytes can reach 80-90%. This mouse model can be used to determine the effect of compounds, including those compounds in the present invention, on regulating mRNA levels in human hepatocytes in vivo. Mice were treated with 150 mg/kg b.i.d. with RVX000222 or vehicle by oral gavage for 3 days. Livers were harvested and RNA levels determined by real-time PCR using human specific TaqMan primer probes and cyclophilin A as an endogenous control. Table 5 lists the reduction in the levels of the indicated mRNAs. *p<0.05, **p<0.01 versus vehicle treated animals using 2-tailed student's t-tests.
# [2] = system: complement component 5 (C5) mRNA; test: as above; format: in vivo, chimeric mice with humanized livers; conditions: 150 mg/kg b.i.d. oral gavage, 3 days, liver
# Procedure: as §4
# C9 mRNA = test: as above; format: in vivo, chimeric mice with humanized livers; conditions: 150 mg/kg b.i.d. oral gavage, 3 days, liver; p < 0.01
# Procedure: as §4
# [3] = system: mannose-binding lectin 2 (MBL2) mRNA; test: as above; format: in vivo, chimeric mice with humanized livers; conditions: 150 mg/kg b.i.d. oral gavage, 3 days, liver; p < 0.01
# Procedure: as §4
# [4] = system: complement component 3 (C3) mRNA; test: as above; format: in vivo, chimeric mice with humanized livers; conditions: 150 mg/kg b.i.d. oral gavage, 3 days, liver
# Procedure: as §4
# complement C5 mRNA = test: Complement mRNA expression in primary human hepatocytes; format: cell-based; conditions: 30 uM, maximum at 24 h, single donor
# Procedure: (§5) Huh-7 and HepG2 cells are liver-derived cell lines and are models for what can occur in the liver. Huh-7 cells (JCRB Cell Bank) were introduced to 96-well plates (^˜2.5×10^5 per well) in 100 μL DMEM containing 10% (v/v) FBS, 100 U/mL penicillin, 100 ug/mL streptomycin and 5 ug/mL plasmocin (all reagents from Gibco, except for the former, which was obtained from Invivogen). After 24 h, Huh-7 cells were treated with compounds in the same media formulation used for plating, and supplemented with 0.1% DMSO for the amount of time indicated in tables 2, 3, and 4. For select experiments, 24 h post-plating, cells were treated with cytokines and the compound of interest simultaneously, for a total treatment time of 48 h. Alternatively, 24 h after plating, cells were pre-treated with cytokines for 24 h before adding the compound of interest for 48 h. HepG2 cells (ATCC) were cultured in 96-well plates (^˜2.5×10^5 per well) in MEM containing 10% FBS, 1× non-essential amino acids, 1 mM sodium pyruvate, 2 mM L-glutamine, 100 U/mL penicillin, 100 ug/mL streptomycin and 5 ug/mL plasmocin. Serum amount was reduced to 0.5% for treatments with compound or cytokines. Timing of treatment of HepG2 cells with compounds and cytokines was as described for Huh-7 cells. Primary human hepatocytes (CellzDirect/Life Technologies) were plated in collagen coated 96-well plates at 70 000 cells/well, then overlaid with Matrigel™ as recommended by the supplier. Cells were treated with compounds of interest and/or cytokines for the indicated time points in the recommended media supplemented with 0.1% DMSO and 10% FBS (v/v). Cells were harvested by mRNA Catcher PLUS Kit (Life Technologies) followed by real-time PCR using the RNA UltraSense One-Step qRT-PCR System. The level of the mRNA of interest was measured by TaqMan real-time PCR relative to the endogenous control cyclophilin A in the same sample. Data were acquired using the ViiA-7 Real Time PCR System (Applied Biosystems).
# (§6) Downregulation of expression of components of the complement cascade will result in reduced activity of the pathway and thus will constitute a positive result. Tables 2 and 3 list the concentration of compounds at which the level of the indicated mRNA is reduced by 50%, as well as the duration of treatment with compound. Table 4 lists the maximum reduction in the indicated mRNA measured in primary human hepatocytes treated with compounds for up to 72 hours. FIGS. 1, 2, 3 and 4 show effects of compounds on cytokine-induced (i.e. inflammatory) expression of complement genes in Huh-7 cells and HepG2 cells.
# complement C9 mRNA = test: as above; format: cell-based; conditions: 30 uM, maximum at 72 h, single donor
# Procedure: as §5, §6
# MBL2 mRNA = test: as above; format: cell-based; conditions: 30 uM, maximum at 24 h, single donor
# Procedure: as §5, §6
# complement C1S mRNA = test: as above; format: cell-based; conditions: 30 uM, maximum at 72 h, single donor
# Procedure: as §5, §6
# complement C3 mRNA = test: as above; format: cell-based; conditions: 30 uM, maximum at 24 h, single donor
# Procedure: as §5, §6
# complement C4 mRNA = test: as above; format: cell-based; conditions: 30 uM, maximum at 72 h, single donor
# Procedure: as §5, §6
# complement C2 mRNA = test: as above; format: cell-based; conditions: 30 uM, maximum at 72 h, single donor
# Procedure: as §5, §6
smiles,measurement,setting,value
"COc1cc(OC)c2c(=O)[nH]c(-c3cc(C)c(OCCO)c(C)c3)nc2c1 [RVX000222, 2-(4-(2-hydroxyethoxy)-3,5-dimethylphenyl)-5,7-dimethoxyquinazolin-4(3H)-one]",secretion of C5 protein (FIG. 6),C5 protein,reduces secretion
same,secretion of C3 protein (FIG. 6),C3 protein,reduces secretion
same,secretion of C4 protein (FIG. 6),C4 protein,reduces secretion
same,secretion of C9 protein (FIG. 6),C9 protein,reduces secretion
same,C4 average % reduction in expression relative to vehicle treated mice,[1],36%*
same,C5 average % reduction in expression relative to vehicle treated mice,[2],17%
same,C9 average % reduction in expression relative to vehicle treated mice,C9 mRNA,45%**
same,MBL2 average % reduction in expression relative to vehicle treated mice,[3],61%**
same,C3 average % reduction in expression relative to vehicle treated mice,[4],20%
same,C5 percent maximal reduction in gene expression,complement C5 mRNA,38% (24 h)
same,C9 percent maximal reduction in gene expression,complement C9 mRNA,86% (72 h)
same,MBL2 percent maximal reduction in gene expression,MBL2 mRNA,92% (24 h)
same,C1S percent maximal reduction in gene expression,complement C1S mRNA,27% (72 h)
same,C3 percent maximal reduction in gene expression,complement C3 mRNA,13% (24 h)
same,C4 percent maximal reduction in gene expression,complement C4 mRNA,44% (72 h)
same,C2 percent maximal reduction in gene expression,complement C2 mRNA,35% (72 h)

# From patent US10111885B2, “Compositions and therapeutic methods for the treatment of complement-associated diseases” (Resverlogix Corp., priority 2015, dated 2018)
